The numbers were not newly measured in publication PMC4648043, “Development of Small-Molecule Trypanosoma brucei N-Myristoyltransferase Inhibitors: Discovery and Optimisation of a Novel Binding Mode” (Chemmedchem, 2015), which cites them from elsewhere.

Each structure is given as a SMILES string.

The data set deals with T. brucei. Particulars: read-out: T. brucei EC50; previously published inhibitor; cited from earlier work.

What is called EC50 is the concentration needed to bring the measured effect to its halfway point. As for `Cc1nn(C)c(C)c1NS(=O)(=O)c1c(Cl)cc(-c2ccnc(N3CCNCC3)c2)cc1Cl` [DDD85646], the EC50 was 2 nM.
